Results taken from ChEMBL document CHEMBL6178011, “Similar Binding Mode of a 5-Sulfonylthiouracil Derivative Antagonist at Chemerin Receptors CMKLR1 and GPR1” (J Med Chem, 2025).

Experiments:
Type in all cases: cell-based
[1] = molecular target: T1, Chemerin-like receptor 1 (Homo sapiens, UniProt Q99788); experiment: Displacement of TAMRA-labeled chemerin 9 from Nluc-tagged CMKLR1 (unknown origin) transfected in HEK293 cells assessed as inhibition constant incubated for 1 hrs by BRET assay
T1 sequence (Q99788 whole entry): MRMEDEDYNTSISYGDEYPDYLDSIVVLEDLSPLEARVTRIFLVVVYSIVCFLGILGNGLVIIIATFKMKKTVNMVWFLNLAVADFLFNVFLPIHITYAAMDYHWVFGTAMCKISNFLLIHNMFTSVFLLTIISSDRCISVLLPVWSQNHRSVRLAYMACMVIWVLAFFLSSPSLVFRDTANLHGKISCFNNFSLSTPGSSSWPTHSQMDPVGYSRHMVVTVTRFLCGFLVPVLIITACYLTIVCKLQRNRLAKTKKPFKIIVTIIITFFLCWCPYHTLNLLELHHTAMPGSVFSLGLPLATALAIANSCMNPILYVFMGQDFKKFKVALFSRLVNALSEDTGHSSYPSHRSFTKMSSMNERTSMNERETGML

[2] = molecular target: T2, Chemerin-like receptor 2 (Homo sapiens, UniProt P46091); experiment: Displacement of [K14(TAMRA)]-ChemS157 from Nluc-tagged GPR1 (unknown origin) transfected in HEK293 cells assessed as inhibition constant incubated for 1 hrs by BRET assay
T2 sequence (P46091 whole entry): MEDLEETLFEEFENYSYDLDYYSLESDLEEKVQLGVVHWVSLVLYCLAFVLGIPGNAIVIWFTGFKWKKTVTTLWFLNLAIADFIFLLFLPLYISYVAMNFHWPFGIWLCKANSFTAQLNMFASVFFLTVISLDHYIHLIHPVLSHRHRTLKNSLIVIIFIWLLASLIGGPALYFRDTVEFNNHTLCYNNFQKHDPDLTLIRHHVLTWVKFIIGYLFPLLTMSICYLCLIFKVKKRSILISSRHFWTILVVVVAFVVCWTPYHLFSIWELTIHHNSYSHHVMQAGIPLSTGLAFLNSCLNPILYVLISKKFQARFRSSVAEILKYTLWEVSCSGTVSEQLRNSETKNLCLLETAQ

[3] = molecular target: T1, Chemerin-like receptor 1; experiment: Displacement of [K14(TAMRA)]-ChemS157 from Nluc-tagged CMKLR1 (unknown origin) transfected in HEK293 cells assessed as inhibition constant incubated for 1 hrs by BRET assay

Measured: Ki

COc1ccc(C)cc1NC(=O)CSc1nc(=O)c(S(=O)(=O)c2ccc(C)c(Cl)c2)c[nH]1
Not_determined: all assays above
